Source: patent publication US11149040B2, “Fused triazole agonists of the APJ receptor” (AMGEN INC., priority 2017, dated 2021)

Protein sequences, listed by entry. Tags and fused reporters are not part of them. Lines headed by an entry give the natural chain unless they say otherwise; changes in a name come on top.
UniProt P35414: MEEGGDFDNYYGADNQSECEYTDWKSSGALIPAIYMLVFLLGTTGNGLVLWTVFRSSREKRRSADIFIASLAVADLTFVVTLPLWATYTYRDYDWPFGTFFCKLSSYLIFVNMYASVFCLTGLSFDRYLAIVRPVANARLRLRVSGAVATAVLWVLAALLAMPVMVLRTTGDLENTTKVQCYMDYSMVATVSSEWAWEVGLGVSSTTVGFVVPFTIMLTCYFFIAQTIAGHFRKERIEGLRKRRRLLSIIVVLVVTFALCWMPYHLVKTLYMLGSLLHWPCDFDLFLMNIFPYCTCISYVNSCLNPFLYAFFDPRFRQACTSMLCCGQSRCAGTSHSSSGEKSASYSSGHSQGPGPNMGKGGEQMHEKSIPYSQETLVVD

Biological target: human APJ-AT1R (angiotensin Type 1) double stable CHO cell line (Homo sapiens (Human), UniProt P30556+P35414)
Conditions: added to APJ small molecule agonists in the presence of AngII

CCCCc1nc(Cl)c(CO)n1Cc1ccc(-c2ccccc2-c2nn[nH]n2)cc1 [losartan]
effect of AT1R blockade on cooperativity and APJ receptor efficacy: relieved this cooperativity and resulted in synergistic effects of enhancing the efficacy of the APJ receptor
